Measured values: patent publication US20010010919A1 (published 2001)

By UniProt entry, the sequences of proteins in these tests, tags left out. Where a name states a change or a piece, a line headed by the entry shows the natural chain unless it says otherwise.
UniProt P35370: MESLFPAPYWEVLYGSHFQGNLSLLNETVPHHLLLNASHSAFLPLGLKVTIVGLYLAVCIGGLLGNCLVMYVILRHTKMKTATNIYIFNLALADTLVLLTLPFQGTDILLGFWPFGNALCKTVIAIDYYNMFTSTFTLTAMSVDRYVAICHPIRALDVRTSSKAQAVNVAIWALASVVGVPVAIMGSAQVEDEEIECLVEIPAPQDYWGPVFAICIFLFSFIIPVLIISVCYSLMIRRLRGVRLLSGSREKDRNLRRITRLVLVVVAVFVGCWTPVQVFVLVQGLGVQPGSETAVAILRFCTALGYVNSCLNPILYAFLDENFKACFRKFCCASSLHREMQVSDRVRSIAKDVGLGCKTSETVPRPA

T1: orphanin FQ receptor (rat, UniProt P35370 1-367)
T1 chain: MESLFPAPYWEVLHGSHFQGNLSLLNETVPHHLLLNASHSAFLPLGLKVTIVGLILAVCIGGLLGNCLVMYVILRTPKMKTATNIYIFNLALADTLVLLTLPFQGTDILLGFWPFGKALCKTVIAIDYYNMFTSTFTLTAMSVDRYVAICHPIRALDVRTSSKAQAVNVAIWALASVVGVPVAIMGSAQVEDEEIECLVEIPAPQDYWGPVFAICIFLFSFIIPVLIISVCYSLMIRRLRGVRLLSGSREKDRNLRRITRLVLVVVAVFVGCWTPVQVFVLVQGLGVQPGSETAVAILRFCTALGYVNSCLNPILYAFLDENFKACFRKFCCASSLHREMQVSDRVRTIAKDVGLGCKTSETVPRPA

T2: µ opioid receptor expressed in CHO cells
T2 chain: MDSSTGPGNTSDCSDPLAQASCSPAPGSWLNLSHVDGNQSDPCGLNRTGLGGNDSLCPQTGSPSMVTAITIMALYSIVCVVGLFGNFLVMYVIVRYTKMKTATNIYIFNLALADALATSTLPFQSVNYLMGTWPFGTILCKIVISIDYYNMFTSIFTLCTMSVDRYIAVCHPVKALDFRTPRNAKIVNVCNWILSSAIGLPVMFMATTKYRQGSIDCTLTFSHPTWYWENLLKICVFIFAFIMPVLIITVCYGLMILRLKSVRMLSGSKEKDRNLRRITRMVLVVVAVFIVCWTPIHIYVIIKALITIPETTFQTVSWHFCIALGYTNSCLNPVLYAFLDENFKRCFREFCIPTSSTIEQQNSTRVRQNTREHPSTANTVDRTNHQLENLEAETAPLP

B1: monoiodo-Y14-orphanin FQ (peptide)
peptide: FGGFTGARKSARKYANQ
modifications: monoiodotyrosine at position 14 (125I in the binding assay; chloramine T method)
notes: Monoiodinated form of the Y14 analogue; also called I-Y14; monoiodinated Y14-orphanin FQ
B2: Tyr-DAla-Gly-Met-Phe-Gly-ol (DAMGO) (peptide)
peptide: YAGFG
modifications: D-Ala at 2; printed 'Met-Phe' read as N-methyl-Phe at 4; C-terminal Gly-ol
notes: Synthetic µ agonist peptide; also called [3H]-DAMGO

Experiments:
orphanin FQ receptor [1] = target: T1, orphanin FQ receptor; experiment: cell-based or functional assay
orphanin FQ receptor [2] = target: T1, orphanin FQ receptor; experiment: saturation binding of 125I-ligand to membranes of OFQR-transfected CHO cells (LC-7), scintillation proximity, Scatchard analysis
[3] = target: T2, µ opioid receptor expressed in CHO cells; experiment: competition with [3H]diprenorphine (0.36 nM) on membranes of µ receptor-expressing CHO cells
Description: Stable transfected-CHO cells were rinsed three times with 50 mM Tris-HCl buffer (pH 7.7), harvested and homogenized in the same buffer using a glass-Teflon homogenizer at 4° C. The homogenate was centrifuged at 42,000 g at 4° C. for 15 minutes. The pellet was resuspended in 50 mM Tris-HCl buffer and incubated at room temperature for one hour. Following pre-incubation, the homogenate was centrifuged as described above and the pellet was stored at 70° C. until used. The pellet was thawed, washed with 50 mM Tris-HCl buffer and the homogenate was centrifuged as above. The pellet was resuspended in the binding buffer and the protein concentration was adjusted to 100 μg/μl as determined by a standard curve determined by Lowry assay using bovine serum albumin as the standard.
Binding reactions were conducted in an incubation tube with 50 mM Tris-HCl buffer (pH 7.7) in the presence of 10 micromolar peptidase inhibitor bestatin at 25° C. for 60 minutes in a total volume of 1 ml using a final [³H]diprenorphine concentration of 0.36 nM. All of the tubes contained the membrane preparation and [³H]diprenorphine. A ligand of interest was also added to each membrane/diprenorphine preparation. […] Each of the ligands of interest was present in a concentration from zero in order of magnitude up to 100 micromolar. […]

Row | Binder | EC50, cAMP inhibition assay (orphanin FQ receptor [1]) [nM] | Kd (orphanin FQ receptor [2]) [nM] | IC50 [3] [nM]
1 | B1 | 3 | 0.1 | –
2 | B2 | – | – | 2
